# Binding of CDR-mutated scFvs to a peptide of the spike HR2 region

Reference: Li et al. 2023, doi:10.1038/s41467-023-39022-2. File: FLAb, binding data.

Binding partner: SARS-CoV-2 spike HR2 peptide, sequence PDVDLGDISGINAS.

Parent scFv Ab-14: VH joined to VL by the linker GGGGSGGGGSGGGGS. Changes lie in the heavy chain CDRs alone.
VH: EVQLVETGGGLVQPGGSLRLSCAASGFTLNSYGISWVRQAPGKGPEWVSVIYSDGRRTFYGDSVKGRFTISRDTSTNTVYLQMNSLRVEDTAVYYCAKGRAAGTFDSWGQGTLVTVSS
VL: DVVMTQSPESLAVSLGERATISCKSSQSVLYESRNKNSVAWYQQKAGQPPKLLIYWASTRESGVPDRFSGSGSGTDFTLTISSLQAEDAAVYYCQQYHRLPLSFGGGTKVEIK

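The starting antibody came from a phage panning campaign against this peptide. Designed CDR sequences, proposed from the first random library and measured here. Their group label is 14H_En_Gibbs (En: ensemble of fine-tuned language models; Gibbs: Gibbs sampling). The assay is AlphaSeq: two haploid yeast populations carry antibody and antigen on their surface. Mating (16 h, 30 °C) was followed by selection of diploids and sequencing of their barcodes. Read counts were normalised to the haploid input and turned into Kd by a linear fit to BCL2-family pairs of known affinity, for each replicate. The assay was run in six technical replicates.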

Variants are written as CDR1, CDR2 and CDR3 of the heavy chain (limits as in the source). Parent: GFTLNSYGIS, VIYSDGRRTFYGDSVK, GRAAGTFDS.
Scale: log10 of Kd in nM, estimated from mating counts; low values are strong binders.
Averages over replicates are reported, and they cover detected replicates only.
An entry "n.d." has no value in the source: the pair was not observed among the diploids in that replicate. This suggests poor binding but is not conclusive.
As a blank, each scFv also met three strains without target: over all heavy chain designs, 1% of these pairings were detected, typically at 2.08 and seldom below 0.84. Also given: how often the same scFv was detected with the empty control strains, with their mean in brackets.

| CDR-H1 | CDR-H2 | CDR-H3 | replicates, log10 nM | mean, log10 nM | signal with controls |
|---|---|---|---|---|---|
| GFSLDEMGIS | VIYADGQRTAYVDNVK | GVQGMRVWL | -0.36 / -0.59 / -0.31 / -0.69 / -0.59 / -0.18 | -0.45 | 0/18 |
| GKHLDEYGIS | VIYADGQRVQYADTVK | GIQGVNVDV | n.d. / n.d. / n.d. / n.d. / n.d. / n.d. | n.d. | 0/18 |
| GFDLMEYGIS | VIYADGQRQYYANKFK | GEISASGLI | n.d. / n.d. / n.d. / n.d. / n.d. / 1.01 | 1.01 | 0/18 |
| GVNLDEYGIS | VIYADGQRTAYDDPVK | GGQGGTVMV | n.d. / n.d. / n.d. / n.d. / n.d. / n.d. | n.d. | 0/18 |
| GIDLQEYGVS | VIYADGMRQSYADSVK | GQHAGYLDK | n.d. / n.d. / n.d. / 2.45 / n.d. / n.d. | 2.45 | 2/18 (2.59) |
| GPGLQEYGIS | VIYADGIRSAYTDDVK | GQNAGHFLV | n.d. / n.d. / n.d. / n.d. / n.d. / n.d. | n.d. | 0/18 |
| GFNLDEFGIS | VIYADGMRTAYSQDVK | GQHVEFTVS | n.d. / n.d. / n.d. / n.d. / n.d. / n.d. | n.d. | 1/18 (1.74) |
| GFDIDEYGIS | VIYADGTRTAYDNSFK | GQMAGFFTN | n.d. / n.d. / n.d. / n.d. / n.d. / n.d. | n.d. | 0/18 |
| GFDLNEYGVS | VIYADGIRTKYADSFK | GDVGVALFQ | n.d. / n.d. / n.d. / n.d. / n.d. / n.d. | n.d. | 0/18 |
| GMDINEYGVS | VIYADGNRKQYSDNVK | GIEGGNFVI | n.d. / n.d. / n.d. / n.d. / n.d. / n.d. | n.d. | 0/18 |
| GKGLDEYGVS | VIYADGVRKSYVDDVK | GGIAGTFLY | 1.36 / 1.82 / 1.12 / 1.27 / 1.45 / 1.75 | 1.46 | 1/18 (2.14) |
| GENINEYGIS | VIYADGRRTAYAEDVK | GQAGGIIDV | n.d. / n.d. / n.d. / 3.23 / n.d. / n.d. | 3.23 | 0/18 |
| DFNLNEYGIS | VIYADGVRASVLDKVK | GQISGTFDT | 2.61 / 2.30 / 1.83 / 1.52 / 2.63 / 2.52 | 2.24 | 3/18 (3.22) |
| GFSLDEYGIS | VIYADGLRTQYSNKVK | GLQGGFFDQ | n.d. / n.d. / n.d. / n.d. / n.d. / 2.37 | 2.37 | 0/18 |
| GDSLDEFGIS | VIYADGQRKAYSDNVK | GVGQAVLFD | n.d. / n.d. / n.d. / n.d. / n.d. / n.d. | n.d. | 0/18 |
| GLDLESYGIS | VIYADGRRKAYHDSVK | GTNGGVSFV | n.d. / n.d. / n.d. / n.d. / n.d. / n.d. | n.d. | 0/18 |
| GFHLDEFGIS | VIYADGLRMHYANSVK | GEMAGTFTT | n.d. / n.d. / n.d. / 1.63 / 1.14 / n.d. | 1.39 | 0/18 |
| GFDLTEYGIS | VIYADGRRTQYQDAVK | GLNGGIIVV | 0.94 / 2.04 / 1.13 / 1.94 / 1.57 / 0.55 | 1.36 | 0/18 |
| GFDINEYGIS | VIYADGMRKAYVQNVK | GENPSSVQI | n.d. / n.d. / n.d. / n.d. / n.d. / n.d. | n.d. | 0/18 |
| GYDLDQYGIS | VIYADGMRSVYHDSVK | GHEGDTFYV | 0.89 / 0.65 / 0.87 / 0.30 / 1.12 / 0.64 | 0.75 | 0/18 |
| GFSLDEYGIS | VIYADGVRKHYMDSVK | GNIAGTLFA | 0.07 / 1.14 / 0.12 / 0.47 / 0.13 / 0.04 | 0.33 | 0/18 |
| GFDLAEYGIS | VIYADGSRTAYNQNVK | GTGGDSFDF | n.d. / n.d. / n.d. / n.d. / n.d. / 3.14 | 3.14 | 1/18 (1.71) |
| GFDLNEYGVS | VIYADGSRSAYTSSVK | GVHNLDIMI | n.d. / n.d. / n.d. / n.d. / n.d. / n.d. | n.d. | 0/18 |
| GENLDEYGIS | VIYADGVRSQYTDQVK | GVETGAVLE | n.d. / n.d. / n.d. / n.d. / n.d. / n.d. | n.d. | 0/18 |
| FKIGEDYGIS | VIYADGLRTAYENSVK | GDVAGTFDL | 2.06 / 1.78 / 2.09 / 1.16 / 2.16 / 2.36 | 1.93 | 0/18 |
| GFDLQEYGIS | VIYADGMRVSYSDNVK | GRGGVVFIA | -0.32 / -0.48 / -0.27 / -0.80 / -0.81 / -0.83 | -0.58 | 0/18 |
| GADLVEYGIS | VIYADGQRTVYADTVK | GHHGGIFDM | 2.92 / n.d. / n.d. / n.d. / n.d. / 3.09 | 3.01 | 2/18 (3.19) |
| GFDLNEYGVS | VIYADGQRTQYSDKVK | GSESASITN | n.d. / n.d. / n.d. / n.d. / n.d. / n.d. | n.d. | 1/18 (1.99) |
| GFKLDEQGIS | VIYADGRRVGYTDSVK | GTNGLDFTL | n.d. / n.d. / n.d. / n.d. / n.d. / n.d. | n.d. | 0/18 |
| GFWLDEYGIS | VIYADGMRTAYKNSVK | GSFTYVMDV | n.d. / n.d. / n.d. / n.d. / n.d. / n.d. | n.d. | 0/18 |
| GFDVEEYGIS | VIYADGRQSQYANSVK | GAIRGTFDM | n.d. / n.d. / n.d. / n.d. / n.d. / n.d. | n.d. | 0/18 |
| GFDLNEYGIS | VIYADGVQRFYTDNVK | GGNQGTFVL | n.d. / n.d. / n.d. / n.d. / n.d. / n.d. | n.d. | 0/18 |
| GFDIEEYGIS | VIYADGVRTMYADDVK | GIAKGYSLT | n.d. / n.d. / n.d. / n.d. / n.d. / n.d. | n.d. | 0/18 |
| GMDLNEYGIS | VIYADGKRSYYVQDVK | GTNIGQGTD | n.d. / n.d. / n.d. / n.d. / n.d. / n.d. | n.d. | 0/18 |

The first 4 variants above that were never detected:

| CDR-H1 | CDR-H2 | CDR-H3 | replicates, log10 nM | mean, log10 nM | signal with controls |
|---|---|---|---|---|---|
| GKHLDEYGIS | VIYADGQRVQYADTVK | GIQGVNVDV | n.d. / n.d. / n.d. / n.d. / n.d. / n.d. | n.d. | 0/18 |
| GVNLDEYGIS | VIYADGQRTAYDDPVK | GGQGGTVMV | n.d. / n.d. / n.d. / n.d. / n.d. / n.d. | n.d. | 0/18 |
| GPGLQEYGIS | VIYADGIRSAYTDDVK | GQNAGHFLV | n.d. / n.d. / n.d. / n.d. / n.d. / n.d. | n.d. | 0/18 |
| GFNLDEFGIS | VIYADGMRTAYSQDVK | GQHVEFTVS | n.d. / n.d. / n.d. / n.d. / n.d. / n.d. | n.d. | 1/18 (1.74) |

A sequence measured in both rounds can read differently, since the two assays cover different ranges.
The authors averaged sequences with at least three values out of six and counted those with two or fewer as poor binders.
The parent sequence was in this pool as ten entries: three were never detected, three once, and four in most replicates, with averages from 0.34 to 2.37.